Measurements as given in paper PMC10728591.

Molecular target: Human NatB (hNatB), complex of the catalytic subunit hNAA20 and the auxiliary subunit hNAA25 (human) (UniProt P61599)

IC50 of inhibition of hNatB (SI, Fig. S6): 2190 nM
Substance: CoA-αSFL (9), bisubstrate inhibitor of coenzyme A covalently conjugated to full-length human α-synuclein (from UniProt P37840 1-140)
